Tests used:
[1] = system: HIF1a protein in H9c2 rat cardiomyocytes; assay: Cell-based HIF-alpha stabilization assay (inhibition of PHD in cells); conditions: 24 hrs compound incubation, HIF1a protein by ELISA
Protocol: Example B Inhibition of PHD in Cells
PHD Inhibition is Determined Using (Secondary Assay)
Cell-Based HIF-Alpha Stabilization Assay:
H9c2 rat cardiomyocytes (ATCC) were seeded in 96-well tissue culture microplates and cultured for 24 hours prior to addition of compounds (11 point range of serial dilutions) or dimethylsulfoxide vehicle. After 24 hrs of compound incubation, whole cell extracts were prepared by lysing cells in cell extraction buffer containing protease and phosphatase inhibitors (Meso-Scale Discovery). HIF1a protein content was assessed by ELISA (Meso-Scale Discovery) and expressed as a % relative to the maximum response obtained from the positive control, desferrioxamine (Sigma-Aldrich). Compound EC50s were obtained by curve-fitting using XLfit4 MicroSoft Excel curve-fitting software. Compound EC50pos were obtained using XLfit4 to calculate the compound concentration that results in 50% of the desferrioxamine maximum response.

Amino acid sequences for entries named in this document (tags omitted). Residues count along the entry.
UniProt Q9GZT9, 181-417 limits assumed: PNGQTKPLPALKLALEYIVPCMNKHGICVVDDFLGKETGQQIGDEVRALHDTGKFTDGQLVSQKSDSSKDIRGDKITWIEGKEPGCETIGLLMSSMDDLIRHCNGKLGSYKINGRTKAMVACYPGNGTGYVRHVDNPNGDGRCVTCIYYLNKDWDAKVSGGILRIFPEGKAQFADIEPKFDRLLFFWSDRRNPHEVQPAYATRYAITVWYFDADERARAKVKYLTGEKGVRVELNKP

[2] = target: PHD2 enzyme (residues 181-417) (Homo sapiens (Human), UniProt Q9GZT9); assay: Inhibition of PHD enzyme (LC/MS peptide hydroxylation assay); assay type: biochemical; conditions: PHD2 (residues 181-417) 5 nM, 60 min pre-incubation; -log(IC50), IC50 molar
Protocol: Example A Inhibition of PHD Enzyme
The IC50 values for the PHD2 enzyme (residues 181-417) were determined by mixing increasing amounts of inhibitor with a fixed amount of enzyme (5 nM, final concentration) and Biotin labeled peptide (Biotin-Asp-Leu-Glu-Met-Leu-Ala-Pro-Tyr-Ile-Pro-Met-Asp-Asp-Asp-Phe-Gln-Leu, 1 uM final concentration) and 2-Oxyglutarate (2 uM final concentration) in 50 mM HEPES, 50 mM KCl, 0.5 mM TCEP, 2 uM FeCl2, 0.1 mg/ml BSA, at pH 7.3. The reaction was conducted by pre-incubating the enzyme in the presence of inhibitor for 60 min at room temperature. The activity of the free enzyme was measured by adding the peptide, the 2-Oxoglutarate (see above for final concentrations), and Ascorbic Acid (1 mM final concentration). The enzymatic activity was quenched after 60 min by adding an excess of a tight binding inhibitor to the assay mixture. The amount of product released was measured by using a LC/MS system (Agilent HPLC with Applied Biosystems API3000 Mass Spectrometer). Data were analyzed using the classical isotherm equation for the determination of IC50 values and are pIC50, i.e., −log(IC50), where IC50 is molar concentration and are reported as pIC50, i.e., −log(IC50), where IC50 is molar concentration.

Structure (SMILES): COc1cc(-c2cnn(-c3ccc(C(=O)NCC4CCOCC4)cn3)c2O)ccn1
- Inhibition of PHD in cells (pEC50) [1]: 6.27
- PHD Inhibition (pIC50) [2]: 7.1
